One test deals with HEK293 cells. It counts as cell-based. The conditions noted are these: HEK293, 72 hours, MTT; IC50 of modified compound compared to its corresponding cytotoxic compound; approximate multiples. Here is the method: Toxicity detection method: a standard universal test program was used to perform the in vitro cytotoxicity test. 2500 HEK293 cells were cultured in a 96-well plate, and allowed to grow overnight. Cytotoxic compounds and their corresponding conjugated compounds were added into each well in different concentrations, cultivated with the cells at 37° C. for 72 hours, and then treated with MTT reagents. OD changes were read. The approximate multiples of the toxicity change were obtained by comparing the IC50 of the modified compounds to their corresponding cytotoxic compounds.

Test [1] concerns Human breast cancer MDA-MB435 tumor tissue homogenate. It counts as biochemical. As to conditions: Human breast cancer MDA-MB435 tumor tissue homogenate (30 μg/ml); 1 mg/ml compound. Here is the method: (§1) At 37 °C, sample compounds were added into 100 μg acidized tumor tissue homogenates (pH6.0) in a concentration of 1 mg/ml.
(§2) At 37 °C, sample compounds were added into 100 μg acidized human breast cancer (MDA-MB435) tumor tissue homogenates (pH6.0) in a concentration of 1 mg/ml.
(§3) […], sample compounds were added into 100 μg acidized tumor tissue homogenates (pH6.0) in a concentration of 1 mg/ml.
as §2
(§4) At 37 °C, sample compounds were added into 100 μg acidized tumor tissue homogenates in a concentration of 1 mg/ml.
(§5) In the experiments, at 37 °C, compounds were added into proteases in 100 μg acidized tumor tissue homogenates in a concentration of 1 mg/ml. […] Meanwhile certain compounds produced in the screening were compared and their activation efficiency in same tissue was analyzed.
(§6) At 37° C., compounds were added into proteases in 100 μg acidized tumor tissue homogenates in a concentration of 1 mg/ml.

For a further test, the system named is Human heart. The class given is biochemical. As to conditions: Human heart homogenate; 1 mg/ml compound.
Test [2] deals with Human chronic leukemia K562 tumor tissue homogenate. It counts as biochemical. The conditions noted are these: Human chronic leukemia K562 tumor tissue homogenate (30 μg/ml); 1 mg/ml compound. As for the experimental part: as §1, §3, §4, §5, §6
Test [3] deals with Human colon cancer HT-29 tumor tissue homogenate. The class given is biochemical. The conditions noted are these: Human colon cancer HT-29 tumor tissue homogenate (30 μg/ml); 1 mg/ml compound. As for the experimental part:
as §1, §3, §4, §5, §6

Test [4] deals with Human fibrosarcoma HT-1080 tumor tissue homogenate. It counts as biochemical. As to conditions: Human fibrosarcoma HT-1080 tumor tissue homogenate (30 μg/ml); 1 mg/ml compound. As for the experimental part:
as §1, §3, §4, §5, §6

Test [5] relates to Human liver cancer Hepg2 tumor tissue homogenate. The class given is biochemical. The conditions noted are these: Human liver cancer Hepg2 tumor tissue homogenate (30 μg/ml); 1 mg/ml compound. As for the experimental part:
as §1, §3, §4, §5, §6

Test [6] relates to Human non-small cell lung cancer A549 tumor tissue homogenate. The class given is biochemical. The conditions noted are these: Human non-small cell lung cancer A549 tumor tissue homogenate (30 μg/ml); 1 mg/ml compound. Here is the method:
as §1, §3, §4, §5, §6

Test [7] deals with Human ovarian cancer SK-OV-3 tumor tissue homogenate. It counts as biochemical. The conditions noted are these: Human ovarian cancer SK-OV-3 tumor tissue homogenate (30 μg/ml); 1 mg/ml compound. Here is the method: as §1, §3, §4, §5, §6
For test [8], the system named is Human pancreatic cancer Panc-1 tumor tissue homogenate. It counts as biochemical. The conditions noted are these: Human pancreatic cancer Panc-1 tumor tissue homogenate (30 μg/ml); 1 mg/ml compound. As for the experimental part:
as §1, §3, §4, §5, §6

The subject of test [9] is Human prostate cancer PC-3 tumor tissue homogenate. It counts as biochemical. The conditions noted are these: Human prostate cancer PC-3 tumor tissue homogenate (30 μg/ml); 1 mg/ml compound. Here is the method: as §1, §3, §4, §5, §6
For test [10], the system named is Human renal cancer OS-RC-2 tumor tissue homogenate. The class given is biochemical. The conditions noted are these: Human renal cancer OS-RC-2 tumor tissue homogenate (30 μg/ml); 1 mg/ml compound. As for the experimental part:
as §1, §3, §4, §5, §6

The next test concerns tumor tissue homogenates. The class given is biochemical. Here is the method:
as §1, §3, §4, §5, §6

Test [11] deals with Human breast cancer MDA-MB231 cells. The class given is in vivo, nude mice. Here is the method: 1) Human breast cancer MDA-MB231 cells were purchased from American type culture collection (ATCC) and identified according the specification provided by ATCC. Cells were cultivated in […] (DMEM culture medium) containing 10% fetal bovine serum at 37° C. and 5% CO2. The cells were passaged for every three days and cells within the 15th passage were used.
2) Production of tumor. 5×10^6 MDA-MB231 cells were subcutaneously injected to the back of the nude mice. Mice were randomly grouped after the tumor reached at least 100 mm^3. Then treatment began and the day on which the treatment began was day 1.
3) Course of treatment. […] The drugs were administered once weekly for four weeks.
When R1 is 2-(2-Methoxyethoxy)Acetyl, and R3 is Ala, activation study and efficacy study were carried out by using compounds having different cleavable linker. The study methods are identical to those in Examples 10, 11 and 12. The in vitro activation efficiency was tested by asparagine endopeptidase and the tumor inhibition rate was tested by using human breast cancer MDA-MB231 model. […]

The next test relates to tumor CD8+ T cells. The class given is in vivo. The conditions noted are these: D121 immunized C57 mice, 13.2 μmol/kg; ratio of CD8 positive cells in CD45 positive cells of tumor. Here is the method: 4) Analysis on tumor CD8+ T cells. The tumor tissue was homogenated and individual cells in the tumor were filtered, separated and washed by buffer twice, then cultivated with the leucocyte common antigen CD45-PE and CD8-FITC marked antibodies for 1 hour at ambient temperature. The cells were washed by phosphate buffer containing 1% fetal bovine serum twice and then analyzed for the ratio of the T lymphocyte antigen (CD8) positive cells in the leucocyte common antigen (CD45) positive cells by flow cytometry.
4) Analysis on tumor CD8+ T cells. The tumor tissue was homogenated and individual cells in the tumor were filtered, separated and washed by buffer twice, then cultivated with the leucocyte common antigen CD45-PE and T-lymphocyte antigen CD8-FITC marked antibodies for 1 hour at ambient temperature. The cells were washed by phosphate buffer containing 1% fetal bovine serum twice and then analyzed for the ratio of the T lymphocyte antigen (CD8) positive cells in the leucocyte common antigen (CD45) positive cells by flow cytometry. […]
4) Analysis on tumor CD8+ T cells. […] The cells were washed by phosphate buffer containing 1% fetal bovine serum twice and then analyzed for the ratio of the T lymphocyte antigen (CD8) positive cells in the leucocyte common antigen (CD45) positive cells by flow cytometry. […]

[12] abbreviates: MDA-MB231, nude mice, IV 13.2 μmol/kg once weekly for four weeks, Day 10.
Where [13] appears, read: MDA-MB231, nude mice, IV 13.2 μmol/kg once weekly for four weeks, Day 24.

For “4-N—(N—(N—(N-(2-(2-methoxyethoxy) acetyl-L-alanyl)-L-alanyl)-L-asparaginyl)-amino benzyl alcohol-camptothecin-carbonic acid diester [Compound S2]”, the “Cytoxicity reduced (Multiple)” value in the test on HEK293 cells stood at 145 Multiple. For the same substance, the “Activation Efficiencies (%)” value was 78.4% in [1]; 0.5% in the test with Human heart; 63.7% in [2]; 78.3% in test [3]; 75.6% in [4]; 63.7% in test [5]. For the same substance, the “Activation Efficiencies (%)” value turned out to be 68.3% in test [6]; 74.6% in test [7]; 68.4% in [8]; 75.4% in test [9]; 53.6% in [10]. The “Activation efficiency by tumor tissue, in words” value in the test on tumor tissue homogenates was “very high activation efficiency”. In test [11] (setting [12]), the “Inhibitory rate on tumor (%) Day 10” value is on record as 81%. Also, the “Size of Tumor (mm^3) Day 10” value in test [11] (setting [12]) is 59.35 ± 35.53 mm^3. For the same substance, the “Inhibitory rate on tumor (%) Day 24” value in test [11] (setting [13]) turned out to be 91%. Also, the “Size of Tumor (mm^3) Day 24” value in test [11] (setting [13]) was 89.53 ± 65.45 mm^3. For the same substance, in test [11] (compared to control, camptothecin, capecitabine and daunorubicin groups), the “Effect on tumor growth, in words” value is on record as “strong inhibitory effect on tumor growth”. In addition, the “CD8: D45 (%)” value in the test on tumor CD8+ T cells amounted to 17.7%.

The values above are taken from patent US10682371B2, “Small molecule conjugates specifically activated in tumor microenvironment for targeting and use thereof” (priority 2014, dated 2020).
